Laboratory results reported in ChEMBL document CHEMBL3286108, “Novel arylsulfonamide derivatives with 5-HT₆/5-HT₇ receptor antagonism targeting behavioral and psychological symptoms of dementia” (J Med Chem, 2014).

Protein sequences, listed by entry. Tags and fused reporters are not part of them. Lines headed by an entry give the natural chain unless they say otherwise; changes in a name come on top.
UniProt P28335: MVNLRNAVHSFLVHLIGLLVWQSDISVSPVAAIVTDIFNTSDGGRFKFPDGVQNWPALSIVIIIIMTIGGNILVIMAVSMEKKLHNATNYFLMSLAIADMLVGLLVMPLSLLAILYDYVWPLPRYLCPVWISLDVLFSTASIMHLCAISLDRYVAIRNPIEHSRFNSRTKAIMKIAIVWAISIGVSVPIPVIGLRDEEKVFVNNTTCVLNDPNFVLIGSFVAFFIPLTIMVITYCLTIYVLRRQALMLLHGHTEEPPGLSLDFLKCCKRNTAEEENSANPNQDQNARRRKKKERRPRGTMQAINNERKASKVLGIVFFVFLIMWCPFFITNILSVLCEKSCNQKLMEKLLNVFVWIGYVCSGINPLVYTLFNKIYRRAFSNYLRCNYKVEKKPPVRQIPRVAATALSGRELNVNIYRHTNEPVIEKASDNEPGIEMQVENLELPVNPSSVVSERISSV

Biological target: 5-hydroxytryptamine receptor 2C (Homo sapiens, UniProt P28335)
Test: Antagonist activity at human recombinant 5-HT2C receptor assessed as inhibition of serotonin-induced inositol phosphate accumulation
Type: functional

## Cn1ccc2cc3c(cc21)CCN3C(=O)Nc1cccnc1
  IC50: 9.4 nM
